Paper PMC4595045 (Journal of medicinal chemistry, 2013)

Chains of the proteins cited; added tags and fusions are not shown.
UniProt P27732, whole entry: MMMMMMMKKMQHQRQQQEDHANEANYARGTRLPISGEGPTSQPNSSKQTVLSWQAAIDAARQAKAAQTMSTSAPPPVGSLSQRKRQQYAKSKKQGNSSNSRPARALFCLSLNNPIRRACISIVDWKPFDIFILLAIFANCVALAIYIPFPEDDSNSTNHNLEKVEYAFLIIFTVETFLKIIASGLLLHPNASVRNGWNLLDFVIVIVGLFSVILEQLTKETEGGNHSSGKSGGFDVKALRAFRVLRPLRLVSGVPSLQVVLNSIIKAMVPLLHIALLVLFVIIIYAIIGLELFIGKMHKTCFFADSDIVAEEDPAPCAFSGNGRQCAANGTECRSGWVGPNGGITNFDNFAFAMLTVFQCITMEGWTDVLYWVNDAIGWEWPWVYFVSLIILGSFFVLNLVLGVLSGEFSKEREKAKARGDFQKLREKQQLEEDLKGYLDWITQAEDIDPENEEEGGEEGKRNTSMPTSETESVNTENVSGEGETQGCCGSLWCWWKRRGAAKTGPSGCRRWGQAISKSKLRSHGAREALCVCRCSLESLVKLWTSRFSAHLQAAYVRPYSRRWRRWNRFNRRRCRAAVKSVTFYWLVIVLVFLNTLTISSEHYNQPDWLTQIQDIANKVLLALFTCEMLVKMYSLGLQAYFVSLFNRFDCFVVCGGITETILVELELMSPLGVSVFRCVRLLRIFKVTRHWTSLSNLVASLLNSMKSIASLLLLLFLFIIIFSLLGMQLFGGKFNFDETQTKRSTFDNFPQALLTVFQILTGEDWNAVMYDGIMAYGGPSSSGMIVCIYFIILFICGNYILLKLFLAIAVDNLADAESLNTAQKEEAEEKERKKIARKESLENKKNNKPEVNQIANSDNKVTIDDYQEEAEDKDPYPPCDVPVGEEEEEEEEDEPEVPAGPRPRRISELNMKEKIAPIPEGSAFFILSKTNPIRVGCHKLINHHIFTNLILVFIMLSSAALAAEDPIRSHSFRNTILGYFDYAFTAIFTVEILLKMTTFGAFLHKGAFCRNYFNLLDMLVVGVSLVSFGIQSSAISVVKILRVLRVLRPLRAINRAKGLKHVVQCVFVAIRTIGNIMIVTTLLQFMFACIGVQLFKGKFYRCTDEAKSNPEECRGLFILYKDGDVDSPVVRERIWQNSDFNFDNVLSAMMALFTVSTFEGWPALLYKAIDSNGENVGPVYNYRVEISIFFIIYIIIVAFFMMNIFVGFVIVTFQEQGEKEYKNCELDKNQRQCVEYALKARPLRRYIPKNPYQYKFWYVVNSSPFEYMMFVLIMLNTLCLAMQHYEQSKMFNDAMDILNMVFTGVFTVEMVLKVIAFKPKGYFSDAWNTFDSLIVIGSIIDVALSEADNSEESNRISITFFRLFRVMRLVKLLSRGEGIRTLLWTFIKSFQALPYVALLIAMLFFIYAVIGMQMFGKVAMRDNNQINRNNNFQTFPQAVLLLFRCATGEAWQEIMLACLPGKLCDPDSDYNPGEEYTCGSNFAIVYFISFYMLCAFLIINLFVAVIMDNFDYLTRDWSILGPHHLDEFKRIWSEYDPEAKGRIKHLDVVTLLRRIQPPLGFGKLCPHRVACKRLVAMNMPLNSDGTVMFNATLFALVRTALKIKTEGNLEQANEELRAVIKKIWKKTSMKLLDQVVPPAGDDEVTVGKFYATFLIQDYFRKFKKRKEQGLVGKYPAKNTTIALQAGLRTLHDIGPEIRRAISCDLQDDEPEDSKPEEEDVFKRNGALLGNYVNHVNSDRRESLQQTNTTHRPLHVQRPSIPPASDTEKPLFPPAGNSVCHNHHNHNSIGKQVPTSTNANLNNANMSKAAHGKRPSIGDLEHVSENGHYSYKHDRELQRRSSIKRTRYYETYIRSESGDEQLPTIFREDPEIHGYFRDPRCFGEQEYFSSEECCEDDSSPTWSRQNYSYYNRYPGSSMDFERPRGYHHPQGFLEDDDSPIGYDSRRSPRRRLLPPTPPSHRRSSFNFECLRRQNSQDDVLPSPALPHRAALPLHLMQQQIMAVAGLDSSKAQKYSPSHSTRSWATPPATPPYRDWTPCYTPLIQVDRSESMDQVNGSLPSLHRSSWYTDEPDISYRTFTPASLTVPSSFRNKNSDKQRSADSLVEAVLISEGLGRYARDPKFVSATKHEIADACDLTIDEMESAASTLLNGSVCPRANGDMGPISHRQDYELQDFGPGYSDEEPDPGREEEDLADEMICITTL

Molecular target: CaV1.3 LTCCs (Rattus norvegicus, UniProt P27732)
Assay: FLIPR Fluo-8 calcium influx assay, HEK293 cells stably expressing CaV1.3
Assay type: cell-based
Conditions: CaV1.3 over CaV1.2

| Structure (SMILES) | Selectivity, ratio of the IC50 values (CaV1.2/CaV1.3) |
| --- | --- |
| C[C@H](C1CCCCC1)N1C(=O)CC(=O)N(CCc2cccc(Cl)c2)C1=O [Compound 45, (R)-1-(3-Chlorophenethyl)-3-(1-cyclohexylethyl)pyrimidine-2,4,6(1H,3H,5H)-trione] | >10 |
| C[C@H]1[C@H](N2C(=O)CC(=O)N(CCc3ccc(Cl)cc3)C2=O)C[C@@H]2C[C@H]1C2(C)C [Compound 58] | >6 |
| O=C1CC(=O)N(C2CCCC2)C(=O)N1CC1(c2ccc(Cl)cc2)CC1 [Compound 96, 1-((1-(4-Chlorophenyl)cyclopropyl)methyl)-3-cyclopentyl-pyrimidine-2,4,6(1H,3H,5H)-trione] | >26 |
| O=C1CC(=O)N([C@H]2C[C@H]3CC[C@@H]2C3)C(=O)N1CCc1cccc(C(F)(F)F)c1 [Compound 107, 1-((1R,2S,4S)-Bicyclo-[2.2.1]heptan-2-yl)-3-(3-(trifluoromethyl)phenethyl)-pyrimidine-2,4,6(1H,3H,5H)-trione] | >33.0 |
